Patent publication US11548888B2, “KRas G12C inhibitors” (Mirati Therapeutics, Inc., priority 2019, dated 2023)

Sequences of proteins named here, by UniProt entry; tags and fusion partners are left off. Residues count along the entry.
UniProt P01116, 1-188 isoform 2 G12C limits assumed: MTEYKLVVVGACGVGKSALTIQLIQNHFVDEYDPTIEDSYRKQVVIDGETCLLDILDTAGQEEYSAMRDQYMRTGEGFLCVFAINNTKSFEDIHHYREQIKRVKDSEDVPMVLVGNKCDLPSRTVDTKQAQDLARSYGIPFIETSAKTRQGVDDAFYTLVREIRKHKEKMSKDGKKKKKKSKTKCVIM

Target: KRas G12C (Homo sapiens, UniProt P01116, G12C)
Assay: Inhibition of KRas G12C-dependent cell growth: Phospho-ERK in NCI-H358 cells
Settings: NCI-H358 cells expressing KRas G12C; Phospho-ERK (Thr202/Tyr204) normalized to GAPDH; 3 hours compound; 4 parameter fit

Row | SMILES | IC50
1 | O=C(/C=C/C(F)(F)F)N1CCN(c2ncnc3c(F)c(-c4cccc5ccc(F)c(Cl)c45)ncc23)CC1 | 10 µM
2 | O=C(/C=C/C(F)F)N1CCN(c2ncnc3c(F)c(-c4cccc5ccc(F)c(Cl)c45)ncc23)CC1 | 10 µM
3 | C=C(F)C(=O)N1CCN(c2nc(OCC3CCN3C3CC3)nc3c(F)c(-c4cccc5cccc(Cl)c45)ncc23)C[C@@H]1CC#N (some centres unmarked) | 0.031 µM

Other lines, results leading:

Row | IC50 | SMILES
4 | 10 µM | C=CC(=O)N1CCN(c2ncnc3c(F)c(-c4cc(C)cc5ccccc45)ncc23)CC1
5 | 10 µM | O=C(/C=C/CF)N1CCN(c2ncnc3c(F)c(-c4cccc5ccc(F)c(Cl)c45)ncc23)CC1
